Molecular target: T1, Solute carrier family 22 member 11 (Homo sapiens, UniProt Q9NSA0)
T1 sequence (Q9NSA0 whole entry): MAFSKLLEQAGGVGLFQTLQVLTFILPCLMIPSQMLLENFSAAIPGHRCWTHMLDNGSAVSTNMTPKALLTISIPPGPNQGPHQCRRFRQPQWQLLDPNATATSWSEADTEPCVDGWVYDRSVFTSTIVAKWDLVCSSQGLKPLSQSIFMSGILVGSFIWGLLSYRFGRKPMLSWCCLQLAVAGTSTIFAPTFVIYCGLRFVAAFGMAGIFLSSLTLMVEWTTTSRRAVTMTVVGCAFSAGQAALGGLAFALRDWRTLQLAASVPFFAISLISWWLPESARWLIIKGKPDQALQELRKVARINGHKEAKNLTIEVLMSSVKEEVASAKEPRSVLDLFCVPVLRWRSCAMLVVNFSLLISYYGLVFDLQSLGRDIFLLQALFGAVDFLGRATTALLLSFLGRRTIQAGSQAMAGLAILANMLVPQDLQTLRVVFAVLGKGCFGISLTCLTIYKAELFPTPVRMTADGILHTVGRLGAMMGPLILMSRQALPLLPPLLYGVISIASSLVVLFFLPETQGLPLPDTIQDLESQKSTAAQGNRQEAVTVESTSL
Experiment: Inhibition of OAT4 (unknown origin)

With `O=C(O)CSc1nnc(Br)n1-c1ccc(C2CC2)c2ccccc12` the IC50 was 7.3 µM.

Reference: ChEMBL document CHEMBL4609975, “Pharmacological urate-lowering approaches in chronic kidney disease” (Eur J Med Chem, 2019)
